From PMC7497403, “Development of Potent PfCLK3 Inhibitors Based on TCMDC-135051 as a New Class of Antimalarials” (Journal of Medicinal Chemistry, 2020)

The chains behind the UniProt entries cited, without tags or fusion partners. Where a name states a change or a piece, a line headed by the entry shows the natural chain unless it says otherwise.
UniProt P49841: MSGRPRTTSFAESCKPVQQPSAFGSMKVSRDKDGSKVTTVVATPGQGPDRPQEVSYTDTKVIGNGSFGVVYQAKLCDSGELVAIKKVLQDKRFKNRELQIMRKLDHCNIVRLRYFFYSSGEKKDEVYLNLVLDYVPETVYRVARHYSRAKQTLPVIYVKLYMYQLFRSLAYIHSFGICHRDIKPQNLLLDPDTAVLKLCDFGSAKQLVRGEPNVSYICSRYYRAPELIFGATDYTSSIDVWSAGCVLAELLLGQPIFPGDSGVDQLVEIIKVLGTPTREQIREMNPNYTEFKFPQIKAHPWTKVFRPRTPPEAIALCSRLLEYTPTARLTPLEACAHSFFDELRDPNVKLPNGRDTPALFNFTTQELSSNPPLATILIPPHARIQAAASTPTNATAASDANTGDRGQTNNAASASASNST
UniProt Q92630: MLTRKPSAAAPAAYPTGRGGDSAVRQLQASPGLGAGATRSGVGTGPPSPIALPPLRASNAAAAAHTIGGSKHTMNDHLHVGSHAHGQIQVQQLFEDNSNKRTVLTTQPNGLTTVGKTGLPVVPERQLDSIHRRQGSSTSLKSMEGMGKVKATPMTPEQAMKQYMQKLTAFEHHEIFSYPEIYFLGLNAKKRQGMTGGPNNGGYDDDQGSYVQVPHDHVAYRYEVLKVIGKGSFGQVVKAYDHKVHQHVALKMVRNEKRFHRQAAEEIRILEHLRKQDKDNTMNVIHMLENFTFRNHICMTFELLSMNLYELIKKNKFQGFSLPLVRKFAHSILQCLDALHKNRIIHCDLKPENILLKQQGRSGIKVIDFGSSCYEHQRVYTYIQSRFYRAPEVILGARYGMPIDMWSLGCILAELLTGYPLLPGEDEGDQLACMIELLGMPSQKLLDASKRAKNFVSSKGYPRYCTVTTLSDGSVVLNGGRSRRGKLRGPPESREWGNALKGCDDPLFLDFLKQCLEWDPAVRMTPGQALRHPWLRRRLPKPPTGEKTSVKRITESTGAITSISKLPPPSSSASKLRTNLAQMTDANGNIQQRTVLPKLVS
UniProt O43781: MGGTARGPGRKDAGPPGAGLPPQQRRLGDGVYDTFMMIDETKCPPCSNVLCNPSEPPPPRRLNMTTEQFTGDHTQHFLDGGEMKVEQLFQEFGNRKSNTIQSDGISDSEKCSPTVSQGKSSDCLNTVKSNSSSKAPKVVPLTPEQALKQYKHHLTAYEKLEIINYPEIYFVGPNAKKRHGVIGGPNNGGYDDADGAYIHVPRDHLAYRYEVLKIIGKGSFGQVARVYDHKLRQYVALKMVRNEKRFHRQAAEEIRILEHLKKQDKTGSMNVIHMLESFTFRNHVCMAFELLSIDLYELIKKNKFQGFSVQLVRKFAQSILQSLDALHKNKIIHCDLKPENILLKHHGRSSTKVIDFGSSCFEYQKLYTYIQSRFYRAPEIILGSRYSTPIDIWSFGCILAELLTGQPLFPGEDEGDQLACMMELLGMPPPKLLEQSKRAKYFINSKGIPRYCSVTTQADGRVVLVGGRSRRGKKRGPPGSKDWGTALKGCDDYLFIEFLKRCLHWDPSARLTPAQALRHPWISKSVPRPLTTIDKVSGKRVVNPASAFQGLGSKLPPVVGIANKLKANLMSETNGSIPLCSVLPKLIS
UniProt P49760, whole entry: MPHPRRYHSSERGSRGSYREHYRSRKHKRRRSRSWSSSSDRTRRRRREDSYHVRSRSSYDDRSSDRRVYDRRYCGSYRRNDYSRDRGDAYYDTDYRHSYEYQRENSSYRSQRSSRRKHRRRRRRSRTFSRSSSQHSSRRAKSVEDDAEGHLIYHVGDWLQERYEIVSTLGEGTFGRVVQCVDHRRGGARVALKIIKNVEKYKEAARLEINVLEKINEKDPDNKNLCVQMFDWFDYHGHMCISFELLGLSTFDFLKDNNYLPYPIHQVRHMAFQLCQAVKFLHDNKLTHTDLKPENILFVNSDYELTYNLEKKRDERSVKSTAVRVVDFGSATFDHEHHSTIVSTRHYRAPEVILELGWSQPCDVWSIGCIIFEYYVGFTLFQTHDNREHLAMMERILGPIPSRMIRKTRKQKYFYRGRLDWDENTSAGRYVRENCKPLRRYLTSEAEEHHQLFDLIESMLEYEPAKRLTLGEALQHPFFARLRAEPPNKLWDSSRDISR

Legend:
Test in all cases: biochemical
DYRK1A = DYRK1A (Homo sapiens, UniProt Q13627)
GSK3b = GSK3b (Homo sapiens, UniProt P49841)
DYRK2 = DYRK2 (Homo sapiens, UniProt Q92630)
DYRK3 = DYRK3 (Homo sapiens, UniProt O43781)
CLK2 = CLK2 (Homo sapiens, UniProt P49760)

CCN(CC)Cc1ccc(OC)c(-c2cc3c(-c4ccc(C(=O)O)c(C(C)C)c4)ccnc3[nH]2)c1 [analogue 1, 4-(2-(5-((Diethylamino)methyl)-2-methoxyphenyl)-1H-pyrrolo[2,3-b]pyridin-4-yl)-2-isopropylbenzoic Acid]
activity at 1 µM (DYRK1A): 71%
activity at 1 µM (GSK3b): 51%
activity at 1 µM (DYRK2): 99%
activity at 1 µM (DYRK3): 101%
activity at 1 µM (CLK2): 17%
